Test results: ChEMBL document CHEMBL4823262, “Discovery of a Vitamin D Receptor-Silent Vitamin D Derivative That Impairs Sterol Regulatory Element-Binding Protein In Vivo” (J Med Chem, 2021)

What was measured:
[1] = target: T1, Sterol regulatory element-binding protein cleavage-activating protein (Homo sapiens) (UniProt Q12770); assay: Inhibition of FLAG-tagged SCAP (unknown origin) expressed in CHO-K1 cells assessed as reduction in SCAP protein level at 1 uM after 24 hrs by Western blotting analysis; format: cell-based
T1 sequence (whole entry): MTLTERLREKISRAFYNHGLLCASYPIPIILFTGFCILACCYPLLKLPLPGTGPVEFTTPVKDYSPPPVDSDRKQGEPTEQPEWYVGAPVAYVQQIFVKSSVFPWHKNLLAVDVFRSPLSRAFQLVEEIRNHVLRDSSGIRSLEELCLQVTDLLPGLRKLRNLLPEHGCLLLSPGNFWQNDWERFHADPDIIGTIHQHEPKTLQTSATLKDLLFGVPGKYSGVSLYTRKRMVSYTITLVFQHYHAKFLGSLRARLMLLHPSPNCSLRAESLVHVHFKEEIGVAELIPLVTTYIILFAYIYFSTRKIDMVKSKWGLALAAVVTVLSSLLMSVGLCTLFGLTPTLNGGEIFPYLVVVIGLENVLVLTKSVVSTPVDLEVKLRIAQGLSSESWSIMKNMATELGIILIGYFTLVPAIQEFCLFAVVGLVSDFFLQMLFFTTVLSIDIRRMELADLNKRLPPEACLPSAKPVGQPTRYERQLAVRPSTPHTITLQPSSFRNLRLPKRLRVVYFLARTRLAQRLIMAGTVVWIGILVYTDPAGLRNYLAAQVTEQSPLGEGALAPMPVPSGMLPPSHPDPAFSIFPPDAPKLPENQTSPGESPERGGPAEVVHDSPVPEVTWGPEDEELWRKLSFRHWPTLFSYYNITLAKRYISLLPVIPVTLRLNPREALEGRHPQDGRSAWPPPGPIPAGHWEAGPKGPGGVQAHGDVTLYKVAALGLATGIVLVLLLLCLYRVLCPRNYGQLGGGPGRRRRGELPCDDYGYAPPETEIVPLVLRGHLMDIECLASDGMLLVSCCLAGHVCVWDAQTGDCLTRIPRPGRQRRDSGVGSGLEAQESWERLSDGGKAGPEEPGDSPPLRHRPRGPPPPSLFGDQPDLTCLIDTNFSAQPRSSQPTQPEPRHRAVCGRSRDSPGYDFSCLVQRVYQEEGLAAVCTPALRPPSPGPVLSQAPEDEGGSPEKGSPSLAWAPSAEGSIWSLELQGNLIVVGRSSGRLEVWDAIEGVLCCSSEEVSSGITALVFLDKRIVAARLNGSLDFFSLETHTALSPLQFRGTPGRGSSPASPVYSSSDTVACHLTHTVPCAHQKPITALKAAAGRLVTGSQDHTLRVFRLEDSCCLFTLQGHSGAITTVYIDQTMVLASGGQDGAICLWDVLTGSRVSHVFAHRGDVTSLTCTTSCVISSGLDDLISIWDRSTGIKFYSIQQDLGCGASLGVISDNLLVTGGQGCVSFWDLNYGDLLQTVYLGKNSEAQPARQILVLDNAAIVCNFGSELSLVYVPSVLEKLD

[2] = target: T1, Sterol regulatory element-binding protein cleavage-activating protein (Homo sapiens); assay: Inhibition of FLAG-tagged SCAP (unknown origin) expressed in CHO-K1 cells assessed as reduction in SCAP protein level at 1 to 5 uM after 24 hrs in presence of proteasome inhibitor MG132 by Western blotting analysis; format: cell-based; details: dose 1-5 µM

C[C@H](CCC(F)(F)C(C)(C)O)[C@H]1CC[C@H]2/C(=C/Cn3nnnc3-c3ccccc3)CCC[C@]12C
inhibition [1]: inactive | inhibition [2]: inactive

Activity calls are given as the source filed them. The calls are words filed in the database; no cut-off is given here.
